Assay: Water solubility of hydrophobic reagent
Format: physicochemical
Conditions: in water at 23° C.

- water solubility: 2-5%
Substance: tetrapropenyl succinic anhydride [TPSA]
